scFv variants of Ab-14 (light chain) against a SARS-CoV-2 spike peptide

Target peptide (SARS-CoV-2 spike, HR2 region): PDVDLGDISGINAS

Ab-14 is the parent antibody, in scFv form: VH, then three GGGGS repeats, then VL. The heavy chain is unchanged in all variants.
VH: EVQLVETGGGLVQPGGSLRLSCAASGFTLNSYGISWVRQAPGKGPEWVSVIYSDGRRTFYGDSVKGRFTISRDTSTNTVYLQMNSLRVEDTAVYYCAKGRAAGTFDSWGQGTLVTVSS
VL: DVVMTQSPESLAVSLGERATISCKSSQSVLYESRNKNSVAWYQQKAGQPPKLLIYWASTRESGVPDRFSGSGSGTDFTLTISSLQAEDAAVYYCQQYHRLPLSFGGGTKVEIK

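Designed CDR sequences, proposed from the first random library and measured here. Several design methods are mixed in this list. The assay is AlphaSeq: two haploid yeast populations carry antibody and antigen on their surface. Binding brings cells together so that they mate, and sequencing counts the barcode pairs among the diploids. Read counts were normalised to the haploid input and turned into Kd by a linear fit to BCL2-family pairs of known affinity, for each replicate. Mating was done six times.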

Sequences are complete VL domains.
Variants here have more than six changes.
The Kd shown is the geometric mean over detected replicates; a lower Kd is a better binder.
Where no diploid with the target was found in any replicate, the entry reads "nd": below detection, most likely a poor binder, though not proof of it.

* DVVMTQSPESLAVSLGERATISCMVSQLMVWGMHARNSIAWYQQKAGQPPKLLIYEAEHRCNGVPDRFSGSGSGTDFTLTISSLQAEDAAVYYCQQYDRLPLFFGGGTKVEIK = nd (0 of 6 replicates; controls 0 of 18)
* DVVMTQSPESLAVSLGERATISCKLSGATRLESGNKASVAWYQQKAGQPPKLLIYENSTRGEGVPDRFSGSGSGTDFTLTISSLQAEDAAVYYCQQYFRLPLSFGGGTKVEIK = 1.8 nM (6 of 6 replicates; controls 1 of 18)
* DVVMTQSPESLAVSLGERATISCKISMMYRYEQQNSSSIAWYQQKAGQPPKLLIYEVSTRLNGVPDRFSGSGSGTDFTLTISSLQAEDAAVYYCQSYHRLPLSFGGGTKVEIK = nd (0 of 6 replicates; controls 0 of 18)
* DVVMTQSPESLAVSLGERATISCKLDASMYVGTEAKRAIAWYQQKAGQPPKLLIYQDEMLVHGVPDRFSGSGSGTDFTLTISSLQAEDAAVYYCQQYHRLPLMFGGGTKVEIK = 4.1 nM (6 of 6 replicates; controls 0 of 18)
* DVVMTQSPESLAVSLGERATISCKIGMTLNQLMHKKNNVAWYQQKAGQPPKLLIYDLVMRENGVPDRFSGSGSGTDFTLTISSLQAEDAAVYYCQQYERLPLSFGGGTKVEIK = 860 pM (6 of 6 replicates; controls 1 of 18)
* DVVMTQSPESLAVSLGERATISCIFSQSALMGNMTRNSVAWYQQKAGQPPKLLIYQASTRFNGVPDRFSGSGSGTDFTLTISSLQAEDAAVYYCQQYHRLPLIFGGGTKVEIK = 56 nM (6 of 6 replicates; controls 1 of 18)
* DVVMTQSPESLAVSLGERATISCRIDDYEAMLGKNKESIAWYQQKAGQPPKLLIYEAAVTLTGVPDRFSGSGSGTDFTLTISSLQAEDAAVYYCQQYARLPLSFGGGTKVEIK = 9.5 nM (6 of 6 replicates; controls 1 of 18)
* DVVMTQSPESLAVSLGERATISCKLMEQGGHSMDHANNIAWYQQKAGQPPKLLIYEVDMLAQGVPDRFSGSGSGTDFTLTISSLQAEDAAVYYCQQYMHLPLIFGGGTKVEIK = 2.5 nM (6 of 6 replicates; controls 2 of 18)
* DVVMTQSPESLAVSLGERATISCKLSMEHGYESRNKNSVAWYQQKAGQPPKLLIYQASQREEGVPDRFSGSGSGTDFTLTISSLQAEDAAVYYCQQYHRLPLSFGGGTKVEIK = 1.3 nM (6 of 6 replicates; controls 0 of 18)
* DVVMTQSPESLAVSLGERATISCMMSQVTGQGTRHRNNVAWYQQKAGQPPKLLIYQTSEREPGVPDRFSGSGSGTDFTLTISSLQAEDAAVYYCQQYDRLPLVFGGGTKVEIK = 820 pM (6 of 6 replicates; controls 0 of 18)
* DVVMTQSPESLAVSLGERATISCMISDLMMYGSRNKNSVAWYQQKAGQPPKLLIYDLSTRGSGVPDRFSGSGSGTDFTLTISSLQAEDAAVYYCQQYHRLPLSFGGGTKVEIK = 1.6 nM (6 of 6 replicates; controls 0 of 18)
* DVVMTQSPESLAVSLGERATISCHSSQSVLHEINNSNSVAWYQQKAGQPPKLLIYWCTTRESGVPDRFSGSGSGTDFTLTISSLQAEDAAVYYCQQYHGLPLSFGGGTKVEIK = nd (0 of 6 replicates; controls 1 of 18)
* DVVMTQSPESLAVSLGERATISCMISQLYNMGQFAINSVAWYQQKAGQPPKLLIYQASYRNEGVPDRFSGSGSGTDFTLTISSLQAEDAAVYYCQQYDRLPLMFGGGTKVEIK = 6.6 nM (6 of 6 replicates; controls 0 of 18)
* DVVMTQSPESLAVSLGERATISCNLNVSEDQWPLSKNAIAWYQQKAGQPPKLLIYQTTCRVLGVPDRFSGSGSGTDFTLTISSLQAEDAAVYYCQQYAHLPLSFGGGTKVEIK = 6.3 nM (6 of 6 replicates; controls 1 of 18)
* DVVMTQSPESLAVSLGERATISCQLMQVGGYESNAHNSIAWYQQKAGQPPKLLIYDLRTRESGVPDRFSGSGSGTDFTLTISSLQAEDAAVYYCQQYHRLPLSFGGGTKVEIK = 15 nM (6 of 6 replicates; controls 0 of 18)
* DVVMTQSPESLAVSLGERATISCTISQMSTLFSQSINNVAWYQQKAGQPPKLLIYEVSTREEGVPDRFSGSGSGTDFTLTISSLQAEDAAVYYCQQYDRLPLMFGGGTKVEIK = 3.5 nM (6 of 6 replicates; controls 1 of 18)
* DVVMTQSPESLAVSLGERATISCSLMQVGGYLSNNKNSIAWYQQKAGQPPKLLIYDLRTRESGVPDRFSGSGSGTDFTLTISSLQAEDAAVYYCQQYHRLPLSFGGGTKVEIK = 2.9 nM (6 of 6 replicates; controls 2 of 18)
* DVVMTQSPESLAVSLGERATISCMMSQVTGSGTRHRNNVAWYQQKAGQPPKLLIYQTSMREIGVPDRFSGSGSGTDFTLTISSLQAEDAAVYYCQQYDRLPLIFGGGTKVEIK = 9.9 nM (6 of 6 replicates; controls 1 of 18)
* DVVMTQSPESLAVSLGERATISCKLSQFYRMESRNKNSVAWYQQKAGQPPKLLIYDNSTRESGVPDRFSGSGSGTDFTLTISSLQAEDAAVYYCQYYDRLPLSFGGGTKVEIK = 9.6 nM (6 of 6 replicates; controls 1 of 18)

The 3 strongest on average among those seen in every replicate, once more:

VL	Kd (apparent)	replicates with signal	empty controls
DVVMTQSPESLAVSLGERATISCMMSQVTGQGTRHRNNVAWYQQKAGQPPKLLIYQTSEREPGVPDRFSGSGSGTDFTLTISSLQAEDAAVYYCQQYDRLPLVFGGGTKVEIK	820 pM	6/6	0/18
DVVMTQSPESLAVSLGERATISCKIGMTLNQLMHKKNNVAWYQQKAGQPPKLLIYDLVMRENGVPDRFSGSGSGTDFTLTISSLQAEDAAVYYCQQYERLPLSFGGGTKVEIK	860 pM	6/6	1/18
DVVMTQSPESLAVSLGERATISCKLSMEHGYESRNKNSVAWYQQKAGQPPKLLIYQASQREEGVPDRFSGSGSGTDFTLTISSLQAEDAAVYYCQQYHRLPLSFGGGTKVEIK	1.3 nM	6/6	0/18

The range of this assay differs from that of the first round, and the authors advise against merging the two.
Empty control strains, which show no peptide, gave a signal in 4% of pairings with all light chain designs; the median was 430 nM and 95% of these signals were weaker than 38 nM. No background was subtracted. Also given: how often the same scFv was detected with the empty control strains.
In the paper, a design with two or fewer of six values counts as a poor binder.

Data: MIT Lincoln Laboratory AlphaSeq set, Li et al. 2023, doi:10.1038/s41467-023-39022-2, as distributed in FLAb.